By pIC50 is commonly meant the IC50 on a negative log10 scale, so that one unit is a factor of ten. Lower therefore signals a high IC50.

pIC50: −log10 of the molar value.

The target of the assay is cGMP-specific 3',5'-cyclic phosphodiesterase (Homo sapiens, UniProt O76074). The experiment in a line: Inhibition of PDE5.

Turning to `CCCOCCn1c(=O)c(NCCN2CCOCC2)nc2ccc(-c3ccc(OC)nc3)nc21`, the pIC50 was 8.54.
